## AlphaSeq binding of Ab-14 light chain variants to a spike HR2 peptide

Source: Li et al. 2023 (doi:10.1038/s41467-023-39022-2), MIT Lincoln Laboratory and A-Alpha Bio; data file from the FLAb repository.

The target is the same throughout: PDVDLGDISGINAS, from the HR2 region of SARS-CoV-2 spike.

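The variants were designed computationally from a first round of random CDR variants and then made and measured. Group labels follow the data file (Ctrl: baseline library sampled from a position-specific scoring matrix, with some repeated check sequences; Rand: our label for a block that the file lists under HC and that is probably the random mutants of the ten best first-round binders; GP: Gaussian process model; HC: hill climbing; Gen: genetic algorithm; Gibbs: Gibbs sampling; a sequence that several methods proposed may carry one label only). Affinity was read by AlphaSeq, a pooled yeast mating assay with surface-displayed partners. Binding brings cells together so that they mate, and sequencing counts the barcode pairs among the diploids. The ratio of observed to expected reads was calibrated, replicate by replicate, on BCL2-family standards whose Kd was known from biolayer interferometry. Mating was done six times.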

Each scFv is VH, a (GGGGS)3 linker, VL, as in the parent Ab-14, and differs from it in the CDRs of the light chain only.
VH: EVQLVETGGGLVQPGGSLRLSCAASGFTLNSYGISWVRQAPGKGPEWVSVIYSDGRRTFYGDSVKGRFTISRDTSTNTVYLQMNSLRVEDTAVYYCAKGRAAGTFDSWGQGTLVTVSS
VL: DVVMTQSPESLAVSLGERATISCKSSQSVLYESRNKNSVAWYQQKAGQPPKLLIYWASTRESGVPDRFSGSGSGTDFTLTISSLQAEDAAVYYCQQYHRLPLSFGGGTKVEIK

Each variant is given by its three light chain CDRs, as the data file delimits them; those of the parent are KSSQSVLYESRNKNSVA, WASTRES, QQYHRLPLS. Variants here have at most six changes. Each Kd is an estimate from the mating assay, the geometric mean of the replicates in which the pair was seen; lower is stronger. Where no diploid with the target was found in any replicate, the entry reads "nd": below detection, most likely a poor binder, though not proof of it. The authors averaged sequences with at least three values out of six and counted those with two or fewer as poor binders. As a blank, each scFv also met three strains without target: over all light chain designs, 4% of these pairings were detected, typically at 430 nM and seldom below 38 nM. The control count says in how many pairings with the empty strains this scFv gave a signal. The parent sequence was in this pool as ten entries: three were never detected, three once, and four in most replicates, with averages from 2.2 nM to 240 nM. A sequence measured in both rounds can read differently, since the two assays cover different ranges.

The variant KSSISYLYESRNSNSVA | EASTRES | QQYHRLPLS [GP_HC] gave 1.3 nM (6 of 6 replicates; controls 1 of 18). With KLSQSYLYESRNKNNVA | SASTRES | QQYHRLPLS [GP_Gen] the result was 350 pM (6 of 6 replicates; controls 1 of 18). With KSSQSVLYESRKKNSVA | WASTRED | QQYHRLHLS [Ctrl] the result was nd (0 of 6 replicates; controls 0 of 18). The variant KLQQSELYESRNKNSVA | QASQRES | QQYHRLPLS [GP_Gen] showed 780 pM (6 of 6 replicates; controls 1 of 18). For KSSQSVSYESRNKNSVA | KASTRES | QQFHRLPLS [Ctrl], the assay gave 4.8 nM (6 of 6 replicates; controls 0 of 18).

For KVYPSDLYESRNKNSVA | QASTRES | QQYHRLPLS [GP_HC], the assay gave 570 pM (6 of 6 replicates; controls 2 of 18). With KSSQSVLNESRNKNSVA | WASTPES | QQYHRLPLS [Ctrl] the result was nd (0 of 6 replicates; controls 2 of 18). The variant KSSQSVPDESRNKNSVA | WASTRES | QQYHRFPIS [Ctrl] showed nd (0 of 6 replicates; controls 1 of 18). With KLYQSVLYESRNKNSVA | NASQRLS | QQYHRLPLS [GP_Gen] the result was 2.9 nM (6 of 6 replicates; controls 1 of 18). The variant KSSQLVLYESRNKNSVA | WASTRES | QQYDRLPLS [Ctrl] gave nd (0 of 6 replicates; controls 1 of 18).

With KVSQSELYESRNKNAVA | EASTRES | QQYHRLPLS [GP_Gen] the result was 610 pM (6 of 6 replicates; controls 2 of 18). The variant KVSQSVLYESRMKNSVA | NASTRES | QQYHRLPLS [GP_Gen] gave 340 pM (6 of 6 replicates; controls 1 of 18). The variant KSSQSVLYESRNKNEVA | DADTRES | QQYHRLPLS [Ctrl] gave 13 nM (6 of 6 replicates; controls 0 of 18). The variant VVSQSVLYESRNKNSVA | TASLPES | QQYHRLPLS [Ctrl] gave 200 nM (2 of 6 replicates; controls 0 of 18). The variant KLPQSELYESRNKNSVA | SASQRES | QQYHRLPLS [GP_Gen] showed 1.1 nM (6 of 6 replicates; controls 0 of 18).

With KSSQSVLYESENKNSVA | DASQRES | QQYHRLPLS [GP_HC] the result was 2.7 nM (6 of 6 replicates; controls 1 of 18). The variant KSSQSFLYESRIKNSVA | GASTRES | QQYHNLTLS [Rand] gave nd (0 of 6 replicates; controls 0 of 18). For KSSESYLYESRNKNSVA | AASTRES | QQYHRLPLS [GP_HC], the assay gave 1.8 nM (6 of 6 replicates; controls 0 of 18). The variant FLSQSVLYESRNKNSVA | NASTRES | QQYHRLPLS [GP_Gen] showed 660 pM (6 of 6 replicates; controls 3 of 18). For RSSQSVMYESRNKNSVA | EASTRES | QQYHRLPLS [Ctrl], the assay gave 3.2 nM (6 of 6 replicates; controls 0 of 18).

With KVVQSHDYESRNKNSVA | HASTRCS | QQYHRLPLS [GP_Gibbs] the result was 1.6 nM (6 of 6 replicates; controls 1 of 18). With KLSQSVLYESRNKNAVA | NASTRMS | QQYHRLPLS [GP_Gen] the result was 1.0 nM (6 of 6 replicates; controls 1 of 18). For HLSWSVLYESNNKNSVA | NASTRES | QQYHRLPLS [GP_HC], the assay gave 880 pM (6 of 6 replicates; controls 1 of 18). The variant FISQSVLYESRNKNSVA | WASTRES | QQYHRLPLS [Ctrl] gave 32 nM (6 of 6 replicates; controls 1 of 18). The variant KLSQSWLYESRNKNSVA | HASQRES | QDYHRLPLS [GP_Gen] gave 1.3 nM (6 of 6 replicates; controls 2 of 18).

The variant KLQQSVLYESRAKNSVA | NASTRES | QQYHRLPLS [GP_Gen] showed 1.0 nM (6 of 6 replicates; controls 0 of 18). With KISQSVLYESRNQNAVA | EASTRCD | QQYHRLPLS [GP_Gibbs] the result was 450 pM (6 of 6 replicates; controls 3 of 18). The variant KLSQSVLYESRNKNSVA | EASKRES | QQYHRLPLS [GP_Gen] gave 840 pM (6 of 6 replicates; controls 0 of 18). With KVQQSVLYESRNKNSVA | DASTRCS | QQYHRLPLS [GP_Gen] the result was 380 pM (6 of 6 replicates; controls 0 of 18). The variant KSSQSVLYESRNKNSVA | WASTRFS | PDYHRLPLS [Ctrl] showed nd (0 of 6 replicates; controls 0 of 18).

The variant KSSQSVLYESRNKSSVA | SASTREI | QQYHRLPLS [Ctrl] gave 910 nM (4 of 6 replicates; controls 1 of 18). The variant KLSQSQLYESRNKNSVA | HASTRLS | QQYHRLPLS [GP_Gen] gave 2.6 nM (6 of 6 replicates; controls 0 of 18). With KLSQSQLYESRNKNSVA | NASTREM | QQYHRLPLS [GP_Gen] the result was 960 pM (6 of 6 replicates; controls 2 of 18).

4 of these entries, quoted again:

CDR-L1,CDR-L2,CDR-L3,group,Kd (apparent),seen in,signal with controls
KVSQSELYESRNKNAVA,EASTRES,QQYHRLPLS,GP_Gen,610 pM,6 of 6,2 of 18
KISQSVLYESRNQNAVA,EASTRCD,QQYHRLPLS,GP_Gibbs,450 pM,6 of 6,3 of 18
KSSQSFLYESRIKNSVA,GASTRES,QQYHNLTLS,Rand,nd,0 of 6,0 of 18
KVQQSVLYESRNKNSVA,DASTRCS,QQYHRLPLS,GP_Gen,380 pM,6 of 6,0 of 18